Data: patent US6686370B2, “Triazospiro compounds having nociceptin receptor affinity” (Euro-Celtique S.A., priority 1999, dated 2004)

Protein sequences, listed by entry. Tags and fused reporters are not part of them.
UniProt P35372, whole entry: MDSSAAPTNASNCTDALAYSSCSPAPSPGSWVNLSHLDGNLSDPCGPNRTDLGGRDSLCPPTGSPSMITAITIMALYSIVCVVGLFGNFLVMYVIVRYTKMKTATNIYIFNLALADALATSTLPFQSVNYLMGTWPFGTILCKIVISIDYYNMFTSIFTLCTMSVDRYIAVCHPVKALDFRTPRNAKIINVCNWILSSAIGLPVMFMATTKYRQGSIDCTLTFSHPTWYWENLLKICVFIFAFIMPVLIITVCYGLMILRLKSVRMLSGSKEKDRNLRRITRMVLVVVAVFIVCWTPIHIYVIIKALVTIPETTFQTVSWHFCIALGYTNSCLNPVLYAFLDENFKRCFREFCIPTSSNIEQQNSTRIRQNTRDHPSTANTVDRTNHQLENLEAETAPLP
UniProt P41145, whole entry: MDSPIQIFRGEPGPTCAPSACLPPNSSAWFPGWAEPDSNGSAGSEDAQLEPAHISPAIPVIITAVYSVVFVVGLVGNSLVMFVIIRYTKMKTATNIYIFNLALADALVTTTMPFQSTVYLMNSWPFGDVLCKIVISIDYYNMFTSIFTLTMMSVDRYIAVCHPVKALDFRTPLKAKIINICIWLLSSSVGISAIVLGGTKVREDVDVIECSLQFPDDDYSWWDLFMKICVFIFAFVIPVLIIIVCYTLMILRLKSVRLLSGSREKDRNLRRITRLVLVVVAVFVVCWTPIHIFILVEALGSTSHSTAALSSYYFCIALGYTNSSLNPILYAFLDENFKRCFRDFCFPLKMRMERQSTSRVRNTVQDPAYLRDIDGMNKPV
UniProt P41146, whole entry: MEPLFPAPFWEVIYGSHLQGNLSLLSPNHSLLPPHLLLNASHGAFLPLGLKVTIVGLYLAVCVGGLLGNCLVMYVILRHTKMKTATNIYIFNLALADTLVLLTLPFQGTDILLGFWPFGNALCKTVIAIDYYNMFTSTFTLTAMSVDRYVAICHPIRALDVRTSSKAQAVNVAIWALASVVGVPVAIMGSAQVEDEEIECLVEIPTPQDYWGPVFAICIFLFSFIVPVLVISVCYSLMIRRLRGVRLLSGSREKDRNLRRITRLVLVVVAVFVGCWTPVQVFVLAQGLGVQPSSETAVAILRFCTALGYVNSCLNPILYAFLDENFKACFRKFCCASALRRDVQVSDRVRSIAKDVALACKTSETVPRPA

Legend:
[1] = biological target: delta opioid receptor (δ2) (Homo sapiens, UniProt P41143); assay: [35S]GTPγS binding assay, affinity at the δ receptor; format: biochemical; conditions: read-out: calc Ki δ2; delta opioid receptor membranes
Mu opioid receptor = Mu opioid receptor (Homo sapiens, UniProt P35372); assay: [35S]GTPγS binding assay, affinity at the μ receptor; format: biochemical; conditions: read-out: calc Ki μ; mu opioid receptor membranes
kappa opioid receptor = kappa opioid receptor (Homo sapiens, UniProt P41145); assay: [35S]GTPγS binding assay, affinity at the k receptor; format: biochemical; conditions: read-out: calc Ki k; kappa opioid receptor membranes
[2] = biological target: human opioid receptor-like receptor (ORL-1) (Homo sapiens, UniProt P41146); assay: Functional [35S]GTPγS binding assay, nociceptin affinity at the ORL1 receptor; conditions: read-out: Nociceptin Affinity calc Ki; membranes from recombinant HEK-293 cells expressing human ORL-1

## CCCC1CCC(N2CCC3(CC2)C(=O)NCN3c2ccccc2)CC1 (stereo not drawn)
[1]
  Ki: > 10 µM
Mu opioid receptor
  Ki: 2.6 nM
Kappa opioid receptor
  Ki: 1800 nM
[2]
  Ki: 20.1 nM

## O=C1NCN(c2ccccc2)C12CCN(CCC(c1ccccc1)c1ccccc1)CC2
[1]
  Ki: 3.9 µM
Mu opioid receptor
  Ki: 0.32 nM
Kappa opioid receptor
  Ki: 478 nM
[2]
  Ki: 56 nM

## CC(C)CCC(C)N1CCC2(CC1)C(=O)NCN2c1ccccc1 (stereo not drawn)
[1]
  Ki: 3.26 µM
Mu opioid receptor
  Ki: 3.4 nM
Kappa opioid receptor
  Ki: 257 nM
[2]
  Ki: 36.8 nM
